Target: FLAG-tagged PDE2A1 (amino acids 2-941) (Homo sapiens (Human), UniProt O00408)
Assay: IMAP TR-FRET PDE2A phosphodiesterase enzymatic assay
Details: not given

Amino acid sequences for entries named in this document (tags omitted). Residues count along the entry.
UniProt O00408, 2-941: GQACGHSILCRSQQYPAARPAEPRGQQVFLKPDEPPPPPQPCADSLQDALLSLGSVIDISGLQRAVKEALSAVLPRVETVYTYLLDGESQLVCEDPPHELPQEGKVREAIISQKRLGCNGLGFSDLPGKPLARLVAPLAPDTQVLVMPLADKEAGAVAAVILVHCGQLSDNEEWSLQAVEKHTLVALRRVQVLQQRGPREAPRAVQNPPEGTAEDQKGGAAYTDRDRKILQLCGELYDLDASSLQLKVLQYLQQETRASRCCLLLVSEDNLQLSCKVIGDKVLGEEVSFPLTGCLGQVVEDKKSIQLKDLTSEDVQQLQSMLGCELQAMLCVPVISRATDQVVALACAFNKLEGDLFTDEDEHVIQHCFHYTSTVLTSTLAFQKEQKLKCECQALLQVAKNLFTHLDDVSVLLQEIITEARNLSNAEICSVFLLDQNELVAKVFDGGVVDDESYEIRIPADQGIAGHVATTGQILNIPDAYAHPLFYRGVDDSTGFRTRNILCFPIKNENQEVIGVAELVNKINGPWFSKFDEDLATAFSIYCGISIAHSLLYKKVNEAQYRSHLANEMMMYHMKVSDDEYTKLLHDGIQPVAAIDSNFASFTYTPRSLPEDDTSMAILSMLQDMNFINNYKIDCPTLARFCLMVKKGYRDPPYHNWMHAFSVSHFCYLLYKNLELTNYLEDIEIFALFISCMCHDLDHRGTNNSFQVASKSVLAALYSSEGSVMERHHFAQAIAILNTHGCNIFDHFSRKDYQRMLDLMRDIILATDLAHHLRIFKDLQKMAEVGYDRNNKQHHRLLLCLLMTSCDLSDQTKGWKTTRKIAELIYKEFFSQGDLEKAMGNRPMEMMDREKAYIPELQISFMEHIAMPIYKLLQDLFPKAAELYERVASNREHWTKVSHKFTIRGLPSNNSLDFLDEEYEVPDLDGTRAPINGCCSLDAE

Compound	IC50 [µM]
Cc1cc(C2CN(C(=O)c3cc(Cl)ccn3)CC(F)(F)C2)n2ncnc2n1 (centres unmarked) [Example 265, 4-Chloro-2-[(3,3-difluoro-5-{5-methyl-[1,2,4]triazolo[1,5-a]pyrimidin-7-yl}piperidin-1-yl)carbonyl]pyridine]	0.1 to 1
COc1cccc(C(=O)N2CCCC(c3cc(C)nc4ncnn34)C2)c1OC (centres unmarked) [Example 451, 1-[(2,3-Dimethoxyphenyl)carbonyl]-3-{5-methyl-[1,2,4]triazolo[1,5-a]pyrimidin-7-yl}piperidine]	1 to 10
Cc1cc(C2CCCN(Cc3cc(Br)ccc3F)C2)n2ncnc2n1 (centres unmarked) [Example 145, 1-[(5-Bromo-2-fluorophenyl)methyl]-3-{5-methyl-[1,2,4]triazolo[1,5-a]pyrimidin-7-yl}piperidine]	0.1 to 1
Cc1cc(C2CCCN(C(=O)c3c(C)nc4ccccn34)C2)n2ncnc2n1 (centres unmarked) [Example 404, 3-{5-Methyl-[1,2,4]triazolo[1,5-a]pyrimidin-7-yl}-1-({2-methylimidazo[1,2-a]pyridin-3-yl}carbonyl)piperidine]	> 10
Cc1cc(C2CCCN(Cc3ccc4c(c3)CCC4)C2)n2ncnc2n1 (centres unmarked) [Example 142, 1-(2,3-Dihydro-1H-inden-5-ylmethyl)-3-{5-methyl-[1,2,4]triazolo[1,5-a]pyrimidin-7-yl}piperidine]	0.1 to 1
Cc1ccc(C(=O)N2CCCC(c3cc(C)nc4ncnn34)C2)c(C)c1 (centres unmarked) [Example 454, 1-[(2,4-Dimethylphenyl)carbonyl]-3-{5-methyl-[1,2,4]triazolo[1,5-a]pyrimidin-7-yl}piperidine]	0.1 to 1
Cc1cccc(C(=O)N2CCCC(c3cc(C)nc4ncnn34)C2)n1 (centres unmarked) [Example 391, 2-Methyl-6-[(3-{5-methyl-[1,2,4]triazolo[1,5-a]pyrimidin-7-yl}piperidin-1-yl)carbonyl]pyridine]	> 10
Cc1cc(C2CCCN(Cc3c[nH]c4ccccc34)C2)n2ncnc2n1 (centres unmarked) [Example 99, 3-[(3-{5-Methyl-[1,2,4]triazolo[1,5-a]pyrimidin-7-yl}piperidin-1-yl)methyl]-1H-indole]	> 10
Cc1cc(C2CCCN(Cc3ccc(C(F)(F)F)cc3C)C2)n2ncnc2n1 (centres unmarked) [Example 163, 1-{[2-Methyl-4-(trifluoromethyl)phenyl]methyl}-3-{5-methyl-[1,2,4]triazolo[1,5-a]pyrimidin-7-yl}piperidine]	1 to 10
Cc1cc(C2CCCN(Cc3ccc4cccnc4c3)C2)n2ncnc2n1 (centres unmarked) [Example 159, 7-[(3-{5-Methyl-[1,2,4]triazolo[1,5-a]pyrimidin-7-yl}piperidin-1-yl)methyl]quinoline]	0.1 to 1
Cc1cc(C2CN(C(=O)c3ccc(C4CC4)cc3)CCO2)n2ncnc2n1 (centres unmarked) [Example 300, 4-[(4-Cyclopropylphenyl)carbonyl]-2-{5-methyl-[1,2,4]triazolo[1,5-a]pyrimidin-7-yl}morpholine]	0.1 to 1
Cc1cc(C2CCCN(Cc3ccccc3OC(F)(F)F)C2)n2ncnc2n1 (centres unmarked) [Example 157, 3-{5-Methyl-[1,2,4]triazolo[1,5-a]pyrimidin-7-yl}-1-{[2-(trifluoromethoxy)phenyl]methyl}piperidine]	1 to 10
Cc1cc(C2CN(C(=O)c3ccc(F)c(C(F)(F)F)c3)CC(F)(F)C2)n2ncnc2n1 (centres unmarked) [Example 237, 3,3-Difluoro-1-{[4-fluoro-3-(trifluoromethyl)phenyl]carbonyl}-5-{5-methyl-[1,2,4]triazolo[1,5-a]pyrimidin-7-yl}piperidine]	0.1 to 1
Cc1cc(C2CCCN(Cc3ccc(-n4ccnc4)cc3)C2)n2ncnc2n1 (centres unmarked) [Example 129, 1-{[4-(1H-Imidazol-1-yl)phenyl]methyl}-3-{5-methyl-[1,2,4]triazolo[1,5-a]pyrimidin-7-yl}piperidine]	0.1 to 1
Cc1cc(C2CCCN(C(=O)c3cccc4ccccc34)C2)n2ncnc2n1 (centres unmarked) [Example 413, 3-{5-Methyl-[1,2,4]triazolo[1,5-a]pyrimidin-7-yl}-1-[(naphthalen-1-yl)carbonyl]piperidine]	0.1 to 1
COc1cc(F)ccc1C(=O)N1CCCC(c2cc(C)nc3ncnn23)C1 (centres unmarked) [Example 467, 1-[(4-Fluoro-2-methoxyphenyl)carbonyl]-3-{5-methyl-[1,2,4]triazolo[1,5-a]pyrimidin-7-yl}piperidine]	0.1 to 1
COc1cc(F)cc(C(=O)N2CCCC(c3cc(C)nc4ncnn34)C2)c1 (centres unmarked) [Example 417, 1-[(3-Fluoro-5-methoxyphenyl)carbonyl]-3-{5-methyl-[1,2,4]triazolo[1,5-a]pyrimidin-7-yl}piperidine]	0.1 to 1
Cc1cc(C2CCCN(C(=O)c3c(F)cccc3Cl)C2)n2ncnc2n1 (centres unmarked) [Example 495, 1-[(2-Chloro-6-fluorophenyl)carbonyl]-3-{5-methyl-[1,2,4]triazolo[1,5-a]pyrimidin-7-yl}piperidine]	> 10
Cc1cc(C2CN(C(=O)c3cc(C)n(-c4ccc(Cl)cc4)n3)CCO2)n2ncnc2n1 (centres unmarked) [Example 383, 4-[1-(4-Chlorophenyl)-5-methyl-1H-pyrazole-3-carbonyl]-2-{5-methyl-[1,2,4]triazolo[1,5-a]pyrimidin-7-yl}morpholine]	0.1 to 1
Cc1cc(C2CN(C(=O)c3cccc(Cl)c3)CCO2)n2ncnc2n1 (centres unmarked) [Example 220, 4-[(3-Chlorophenyl)carbonyl]-2-{5-methyl-[1,2,4]triazolo[1,5-a]pyrimidin-7-yl}morpholine]	0.1 to 1
Cc1cc(C2CCCN(C(=O)c3ccc(Cl)c(F)c3)C2)n2ncnc2n1 (centres unmarked) [Example 480, 1-[(4-Chloro-3-fluorophenyl)carbonyl]-3-{5-methyl-[1,2,4]triazolo[1,5-a]pyrimidin-7-yl}piperidine]	0.1 to 1
Cc1cc(F)cc(C(=O)N2CCO[C@H](c3cc(C)nc4ncnn34)C2)c1 [Example 332, (2S)-4-(3-Fluoro-5-methylbenzoyl)-2-{5-methyl-[1,2,4]triazolo[1,5-a]pyrimidin-7-yl}morpholine]	0.1 to 1
Cc1cc(C2CCCN(Cc3ccc(-c4ccccc4Cl)cc3)C2)n2ncnc2n1 (centres unmarked) [Example 18, 1-{[4-(2-Chlorophenyl)phenyl]methyl}-3-{5-methyl-[1,2,4]triazolo[1,5-a]pyrimidin-7-yl}piperidine]	0.1 to 1
CCn1ccc2ccc(CN3CCCC(c4cc(C)nc5ncnn45)C3)cc21 (centres unmarked) [Example 146, 1-Ethyl-6-[(3-{5-methyl-[1,2,4]triazolo[1,5-a]pyrimidin-7-yl}piperidin-1-yl)methyl]-1H-indole]	1 to 10
Cc1cc(C2CCCN(C(=O)c3cc(F)cc(Cl)c3)C2)n2ncnc2n1 (centres unmarked) [Example 471, 1-[(3-Chloro-5-fluorophenyl)carbonyl]-3-{5-methyl-[1,2,4]triazolo[1,5-a]pyrimidin-7-yl}piperidine]	0.1 to 1
Cc1cc(C2CCCN(Cc3cnc(C)s3)C2)n2ncnc2n1 (centres unmarked) [Example 194, 1-[(2-Methyl-1,3-thiazol-5-yl)methyl]-3-{5-methyl-[1,2,4]triazolo[1,5-a]pyrimidin-7-yl}piperidine]	1 to 10

Same assay, conditions: IMAP TR-FRET, 200 nM FAM-cAMP substrate, 11-point half-log dose-response

Compound	PDE2 (pIC50)
COc1ccc(C(=O)N2CCO[C@H](c3cc(C)nc4ncnn34)C2)cc1C [Example 343, (2S)-4-(4-Methoxy-3-methylbenzoyl)-2-{5-methyl-[1,2,4]triazolo[1,5-a]pyrimidin-7-yl}morpholine]	>7
Cc1cc(C2CCCN(C(=O)c3ccc(I)cc3)C2)n2ncnc2n1 (centres unmarked) [Example 358, 1-[(4-Iodophenyl)carbonyl]-3-{5-methyl-[1,2,4]triazolo[1,5-a]pyrimidin-7-yl}piperidine]	>7
Cc1cc(C2CCCN(C(=O)c3cccc(I)c3)C2)n2ncnc2n1 (centres unmarked) [Example 357, 1-[(3-Iodophenyl)carbonyl]-3-{5-methyl-[1,2,4]triazolo[1,5-a]pyrimidin-7-yl}piperidine]	>7
Cc1cc(C2CCCN(C(=O)c3ccc4c(c3)OCCO4)C2)n2ncnc2n1 (centres unmarked) [Example 453, 1-[(2,3-Dihydro-1,4-benzodioxin-6-yl)carbonyl]-3-{5-methyl-[1,2,4]triazolo[1,5-a]pyrimidin-7-yl}piperidine]	>7
Cc1cc(C2CCCN(C(=O)c3ccc4c(c3)CCCO4)C2)n2ncnc2n1 (centres unmarked) [Example 208, 1-[(3,4-Dihydro-2H-1-benzopyran-6-yl)carbonyl]-3-{5-methyl-[1,2,4]triazolo[1,5-a]pyrimidin-7-yl}piperidine]	>7
Cc1cc([C@@H]2CN(C(=O)c3cc(F)c(F)c(Br)c3)CC(F)(F)C2)n2ncnc2n1 [Example 315, (5S)-1-(3-Bromo-4,5-difluorobenzoyl)-3,3-difluoro-5-{5-methyl-[1,2,4]triazolo[1,5-a]pyrimidin-7-yl}piperidine]	>7
Cc1cc(C2CCCN(C(=O)C3CCc4ccccc4O3)C2)n2ncnc2n1 (centres unmarked) [Example 353, 1-[(3,4-Dihydro-2H-1-benzopyran-2-yl)carbonyl]-3-{5-methyl-[1,2,4]triazolo[1,5-a]pyrimidin-7-yl}piperidine]	>7
Cc1cc(C2CCCN(C(=O)C3COc4ccc(F)cc4C3)C2)n2ncnc2n1 (centres unmarked) [Example 344, 1-(6-Fluoro-3,4-dihydro-2H-1-benzopyran-3-carbonyl)-3-{5-methyl-[1,2,4]triazolo[1,5-a]pyrimidin-7-yl}piperidine]	>7
Cc1cc(C2CCCN(C(=O)c3cc4ccccc4s3)C2)n2ncnc2n1 (centres unmarked) [Example 457, 1-[(1-Benzothiophen-2-yl)carbonyl]-3-{5-methyl-[1,2,4]triazolo[1,5-a]pyrimidin-7-yl}piperidine]	>7
Cc1cc(C2CN(C(=O)C3COc4ccccc4C3)CC(F)(F)C2)n2ncnc2n1 (centres unmarked) [Example 363, 1-[(3,4-Dihydro-2H-1-benzopyran-3-yl)carbonyl]-3,3-difluoro-5-{5-methyl-[1,2,4]triazolo[1,5-a]pyrimidin-7-yl}piperidine]	>7
Cc1cc([C@@H]2CN(C(=O)c3cc(-c4ccccc4)nn3C)CCO2)n2ncnc2n1 [Example 374, (2S)-4-(1-Methyl-3-phenyl-1H-pyrazole-5-carbonyl)-2-{5-methyl-[1,2,4]triazolo[1,5-a]pyrimidin-7-yl}morpholine]	>7
Cc1cc(C2CCCN(C(=O)c3ccc4occc4c3)C2)n2ncnc2n1 (centres unmarked) [Example 423, 1-[(1-Benzofuran-5-yl)carbonyl]-3-{5-methyl-[1,2,4]triazolo[1,5-a]pyrimidin-7-yl}piperidine]	>7
